In PubChem BioAssay AID1214 (Sanford-Burnham Center for Chemical Genomics, 2008):
Only a part is listed here, and it is no random draw. Calls of active or inactive are those of the source.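 Rule for the calls: active = activation factor of 2 or more at 20 µM, relative to plate controls; inactive = the rest.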

By UniProt entry, the sequences of proteins in these tests, tags left out.
UniProt P34949, whole entry: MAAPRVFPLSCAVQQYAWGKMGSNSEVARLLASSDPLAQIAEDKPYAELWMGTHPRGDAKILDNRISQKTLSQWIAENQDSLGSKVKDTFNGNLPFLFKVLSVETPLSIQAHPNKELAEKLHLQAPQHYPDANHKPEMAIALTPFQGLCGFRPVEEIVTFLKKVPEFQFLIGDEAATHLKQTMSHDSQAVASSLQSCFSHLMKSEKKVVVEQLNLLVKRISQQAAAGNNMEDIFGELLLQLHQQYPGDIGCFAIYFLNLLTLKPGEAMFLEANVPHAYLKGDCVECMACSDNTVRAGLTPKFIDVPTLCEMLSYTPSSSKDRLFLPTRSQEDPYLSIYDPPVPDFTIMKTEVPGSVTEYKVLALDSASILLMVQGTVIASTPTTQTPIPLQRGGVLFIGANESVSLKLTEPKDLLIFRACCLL

What follows are compounds tested against Mannose-6-phosphate isomerase (Homo sapiens) (UniProt P34949) (assay: MPI enzyme activity enhancement – biochemical, fluorescence intensity, near-Km mannose 6-phosphate, primary screen (AID 1214)). Details: purified human PMI, coupled resazurin fluorescence, 20 min, at 20 µM; stronger effect = higher value, 1 = vehicle control, 0 substrate-free wells.
For CC(C)c1ccc(NC2CCN(C(=O)OC(C)(C)C)CC2)cc1, the activation factor was inactive: 0.9. With COc1ccc(CN(CCCl)CCCl)cc1Cl the activation factor was inactive: 0.7. With CN(C)c1cccc(C(=O)NCC2(N3CCCCC3)CCCCC2)c1 the activation factor was inactive: 1.5. With N#CC1(Nc2ccccc2)CCN(CCc2ccccc2)CC1 the activation factor was “inactive”. For O=C(NCC1(N2CCCCC2)CCCCC1)c1cccc([N+](=O)[O-])c1, the activation factor was inactive: 1.1. O=C(NCC1(N2CCOCC2)CCCCC1)c1cc(=O)[nH]c2ccccc12 was tested, and the activation factor was inactive: 0.9. In the case of CN1CCN(CCOC(=O)C(O)(c2ccccc2)c2ccccc2)CC1, the activation factor was inactive: 0.7. In the case of COc1ccc(NC2CCN(C(=O)OC(C)(C)C)CC2)cc1, the activation factor was “inactive”. In the case of COc1ccc(NC2CCN(CCc3ccccc3)CC2)c(OC)c1, the activation factor was inactive: 0.8. With COc1ccc(C(=O)NCC2(N3CCCCC3)CCCCC2)c(OC)c1OC the activation factor was “inactive”. For O=C(NCC1(N2CCOCC2)CCCCC1)c1cc2ccccc2o1, the activation factor was “inactive”. For O=C(OC1CN2CCC1CC2)C1c2ccccc2Oc2ccccc21 (stereo not given), the activation factor was inactive: 0.9. CCOC(=O)N1CCC(Nc2ccc(OC)cc2)CC1 was tested, and the activation factor was “inactive”. With CCOc1ncccc1C(=O)NCC1(N2CCOCC2)CCCCC1 the activation factor was inactive: 0.9. With CC(C)(C)OC(=O)N1CCC(Nc2ccccc2)CC1 the activation factor was inactive: 1.1. With COc1cc(OC)cc(C(=O)NCC2(N3CCOCC3)CCCCC2)c1 the activation factor was inactive: 1.1. In the case of CCC(CO)(C(=O)OC1CN2CCC1CC2)c1ccccc1 (stereo not given), the activation factor was “inactive”. In the case of Fc1ccccc1NC1CCN(Cc2ccccc2)CC1, the activation factor was inactive: 1.2. For CCN1CCC(Nc2cccc(F)c2)CC1, the activation factor was inactive: 0.9. For CN(C)c1ccc(C(=O)NCC2(N3CCCCC3)CCCCC2)cc1, the activation factor was “inactive”. With N#Cc1ccc(C(=O)NCC2(N3CCCCC3)CCCCC2)cc1 the activation factor was inactive: 1.1. With c1ccc(CN2CCC(Nc3ccccc3)CC2)cc1 the activation factor was inactive: 0.8. For COc1ccc(C(=O)NCC2(N3CCOCC3)CCCCC2)cc1OC, the activation factor was inactive: 1.1. N/C(=N\O)c1c(N)no[n+]1[O-] was tested, and the activation factor was inactive: 1.1. With O=C(OC1CN2CCC1CC2)C1c2ccccc2C=Cc2ccccc21 (stereo not given) the activation factor was inactive: 1.1.
